Target: human α4β2 nicotinic acetylcholine receptor (Homo sapiens, UniProt P17787+P43681)
Details: two-site model

Protein sequences, listed by entry. Tags and fused reporters are not part of them. Residues count along the entry.
UniProt P17787, 26-502: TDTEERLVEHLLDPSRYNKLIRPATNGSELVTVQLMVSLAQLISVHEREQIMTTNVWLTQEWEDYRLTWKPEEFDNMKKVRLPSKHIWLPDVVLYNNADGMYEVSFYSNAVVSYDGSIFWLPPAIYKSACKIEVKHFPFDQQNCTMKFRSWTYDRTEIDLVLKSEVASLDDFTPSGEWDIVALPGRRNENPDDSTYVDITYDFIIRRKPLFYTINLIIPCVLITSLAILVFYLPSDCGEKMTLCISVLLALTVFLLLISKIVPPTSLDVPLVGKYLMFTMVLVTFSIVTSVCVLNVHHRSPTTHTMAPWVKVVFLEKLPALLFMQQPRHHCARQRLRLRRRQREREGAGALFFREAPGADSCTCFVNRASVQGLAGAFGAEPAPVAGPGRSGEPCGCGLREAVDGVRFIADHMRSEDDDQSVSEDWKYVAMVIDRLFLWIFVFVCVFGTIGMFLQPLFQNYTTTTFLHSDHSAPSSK
UniProt P43681, 27-627: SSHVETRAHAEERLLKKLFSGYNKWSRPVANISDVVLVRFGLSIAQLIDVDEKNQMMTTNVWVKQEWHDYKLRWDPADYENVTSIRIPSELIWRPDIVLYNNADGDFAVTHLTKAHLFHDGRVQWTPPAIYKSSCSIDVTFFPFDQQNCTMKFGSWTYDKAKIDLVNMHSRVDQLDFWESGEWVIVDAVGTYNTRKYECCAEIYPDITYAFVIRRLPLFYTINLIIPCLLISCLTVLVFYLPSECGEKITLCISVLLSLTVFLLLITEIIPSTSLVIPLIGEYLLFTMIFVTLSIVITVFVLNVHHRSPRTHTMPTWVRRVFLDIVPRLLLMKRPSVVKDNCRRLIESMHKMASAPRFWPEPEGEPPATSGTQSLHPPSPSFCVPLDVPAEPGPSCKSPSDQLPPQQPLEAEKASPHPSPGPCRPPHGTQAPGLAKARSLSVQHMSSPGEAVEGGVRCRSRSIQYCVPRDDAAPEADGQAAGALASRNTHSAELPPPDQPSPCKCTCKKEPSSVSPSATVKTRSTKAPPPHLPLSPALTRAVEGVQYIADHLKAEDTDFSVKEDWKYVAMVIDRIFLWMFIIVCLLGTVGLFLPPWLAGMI

Compound: CO[C@H]1CC=C2CCN3CCC4=C(CC(=O)OC4)[C@]23C1 [DHβE, dihydro-β-erythroidine]
- high-sensitivity component, share of channel population: 82%
- low-sensitivity component, share of channel population: 18%

— paper PMC4991607 (Assay and Drug Development Technologies, 2016)
